Sequences of proteins named here, by UniProt entry; tags and fusion partners are left off.
UniProt P61073, whole entry: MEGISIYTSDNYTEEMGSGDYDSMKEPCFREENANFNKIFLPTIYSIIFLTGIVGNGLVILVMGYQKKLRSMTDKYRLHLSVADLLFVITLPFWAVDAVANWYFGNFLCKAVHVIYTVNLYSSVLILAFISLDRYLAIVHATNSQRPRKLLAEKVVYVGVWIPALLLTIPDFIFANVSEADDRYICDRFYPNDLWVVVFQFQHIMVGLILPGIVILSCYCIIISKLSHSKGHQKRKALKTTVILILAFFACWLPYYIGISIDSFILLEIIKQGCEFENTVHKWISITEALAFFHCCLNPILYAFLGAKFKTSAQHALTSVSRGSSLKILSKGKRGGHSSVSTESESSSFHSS

According to publication PMC5908301, “Small molecule CXCR4 antagonists block the HIV-1 Nef/CXCR4 axis and selectively initiate the apoptotic program in breast cancer cells” (Oncotarget, 2018):

Biological target: CXCR4 (Homo sapiens, UniProt P61073)
Test: Calcium flux induced by SDF-1α in human CXCR4-expressing Chem-1 cell line
Format: cell-based
Set-up: human CXCR4–expressing (full length cDNA) Chem-1 cell line; expressed in transfected cells; host or cells: Chem-1 cell line
Details: Fluo-4, FLIPR; read-out: EC50 for calcium mobilization

Substance: SDF-1α
- EC50: ~4 nM
